How the values were obtained:
CYP2D6 = CYP2D6 (Homo sapiens, UniProt P10635); assay: CYP inhibition, CYP2D6; conditions: read-out: CYP2D6 inhibition IC50; HLM, bufuralol 5 μM
M2 muscarinic receptor = M2 muscarinic receptor (Homo sapiens, UniProt P08172); assay: Secondary pharmacology, radioligand binding
CB1 cannabinoid receptor = CB1 cannabinoid receptor (Homo sapiens, UniProt P21554); assay: Secondary pharmacology, radioligand binding
AT1 angiotensin receptor = AT1 angiotensin receptor (Homo sapiens, UniProt P30556); assay: Secondary pharmacology, radioligand binding
GABAAα1β2γ2 receptor = GABAAα1β2γ2 receptor (Homo sapiens, UniProt P14867+P18507+P47870); assay: Secondary pharmacology, radioligand binding
NK1 neurokinin receptor = NK1 neurokinin receptor (Homo sapiens, UniProt P25103); assay: Secondary pharmacology, radioligand binding
Ghrelin receptor = Ghrelin receptor (Homo sapiens, UniProt Q92847); assay: Secondary pharmacology, radioligand binding
A2A adenosine receptor = A2A adenosine receptor (Homo sapiens, UniProt P29274); assay: Secondary pharmacology, radioligand binding
5-HT7 receptor = 5-HT7 receptor (Homo sapiens, UniProt P34969); assay: Secondary pharmacology, radioligand binding
5-HT2C receptor = 5-HT2C receptor (Homo sapiens, UniProt P28335); assay: Secondary pharmacology, radioligand binding
μ opioid receptor = μ opioid receptor (Homo sapiens, UniProt P35372); assay: Secondary pharmacology, radioligand binding
[1] = target: Translocator Protein (18 kDa) (TSPO) (Homo sapiens, UniProt P30536); assay: Secondary pharmacology, radioligand binding
[2] = target: L-Type calcium channel (CaV1.2) (Phenylalkylamine) (Rattus norvegicus, UniProt P22002); assay: Secondary pharmacology, radioligand binding
M5 muscarinic receptor = M5 muscarinic receptor (Homo sapiens, UniProt P08912); assay: Secondary pharmacology, radioligand binding
κ opioid receptor = κ opioid receptor (Homo sapiens, UniProt P41145); assay: Secondary pharmacology, radioligand binding
5-HT1A receptor = 5-HT1A receptor (Homo sapiens, UniProt P08908); assay: Secondary pharmacology, radioligand binding
H2 histamine receptor = H2 histamine receptor (Homo sapiens, UniProt P25021); assay: Secondary pharmacology, radioligand binding
ETA endothelin receptor = ETA endothelin receptor (Homo sapiens, UniProt P25101); assay: Secondary pharmacology, radioligand binding
GABAA receptor, BNZ site = assay: Secondary pharmacology, radioligand binding
δ opioid Receptor = δ opioid Receptor (Homo sapiens, UniProt P41143); assay: Secondary pharmacology, radioligand binding
[3] = target: L-Type calcium channel (CaV1.2) (Benzothiazepine) (Rattus norvegicus, UniProt P22002); assay: Secondary pharmacology, radioligand binding
[4] = target: Dopamine transporter (DAT) (Homo sapiens, UniProt Q01959); assay: Secondary pharmacology, radioligand binding
[5] = test system: Glycine receptor, Strychnine-Sensitive; assay: Secondary pharmacology, radioligand binding
α1 nicotinic receptor = α1 nicotinic receptor (Homo sapiens, UniProt P02708+P07510+Q07001); assay: Secondary pharmacology, radioligand binding
[6] = target: Noradrenaline Transporter (NET) (Homo sapiens, UniProt P23975); assay: Secondary pharmacology, radioligand binding
[7] = test system: NMDA receptor (Agonist site); assay: Secondary pharmacology, radioligand binding
B2 bradykinin receptor = B2 bradykinin receptor (Homo sapiens, UniProt P30411); assay: Secondary pharmacology, radioligand binding
Sigma σ1 Receptor = Sigma σ1 Receptor (Homo sapiens, UniProt Q99720); assay: Secondary pharmacology, radioligand binding
MT2 melatonin receptor = MT2 melatonin receptor (Homo sapiens, UniProt P49286); assay: Secondary pharmacology, radioligand binding
[8] = target: Peroxisome proliferator-activated receptor-γ (Homo sapiens, UniProt P37231); assay: Secondary pharmacology, radioligand binding
Adenosine Transporter = Adenosine Transporter (Cavia porcellus, UniProt H0V4R7); assay: Secondary pharmacology, radioligand binding
H1 histamine receptor = H1 histamine receptor (Homo sapiens, UniProt P35367); assay: Secondary pharmacology, radioligand binding

Sequences of proteins named here, by UniProt entry; tags and fusion partners are left off. Residues count along the entry.
UniProt P10635, whole entry: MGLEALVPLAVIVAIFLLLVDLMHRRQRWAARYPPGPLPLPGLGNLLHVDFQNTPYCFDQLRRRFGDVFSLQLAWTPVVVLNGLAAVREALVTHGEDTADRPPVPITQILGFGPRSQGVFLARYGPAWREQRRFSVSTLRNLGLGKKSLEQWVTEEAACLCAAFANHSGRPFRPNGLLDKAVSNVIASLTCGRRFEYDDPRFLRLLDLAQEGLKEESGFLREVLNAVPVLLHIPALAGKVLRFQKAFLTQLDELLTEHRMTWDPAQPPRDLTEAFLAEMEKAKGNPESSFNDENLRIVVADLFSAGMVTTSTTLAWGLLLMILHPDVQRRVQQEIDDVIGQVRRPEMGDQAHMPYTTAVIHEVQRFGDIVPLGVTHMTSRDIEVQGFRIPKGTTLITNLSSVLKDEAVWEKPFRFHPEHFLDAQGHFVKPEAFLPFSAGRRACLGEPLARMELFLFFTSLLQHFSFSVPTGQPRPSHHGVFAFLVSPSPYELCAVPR
UniProt P25103, whole entry: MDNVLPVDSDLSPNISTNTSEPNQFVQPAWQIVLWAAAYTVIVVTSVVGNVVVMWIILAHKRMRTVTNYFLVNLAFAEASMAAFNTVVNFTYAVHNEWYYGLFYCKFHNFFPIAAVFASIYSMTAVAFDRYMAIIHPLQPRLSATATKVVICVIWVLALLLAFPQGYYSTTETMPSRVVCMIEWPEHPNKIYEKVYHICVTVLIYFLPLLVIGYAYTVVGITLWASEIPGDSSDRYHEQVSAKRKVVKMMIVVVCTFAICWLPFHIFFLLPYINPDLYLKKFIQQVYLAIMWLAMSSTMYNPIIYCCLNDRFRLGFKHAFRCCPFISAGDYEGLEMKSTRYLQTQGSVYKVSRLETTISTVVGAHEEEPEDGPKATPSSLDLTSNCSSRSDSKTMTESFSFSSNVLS
UniProt P34969, whole entry: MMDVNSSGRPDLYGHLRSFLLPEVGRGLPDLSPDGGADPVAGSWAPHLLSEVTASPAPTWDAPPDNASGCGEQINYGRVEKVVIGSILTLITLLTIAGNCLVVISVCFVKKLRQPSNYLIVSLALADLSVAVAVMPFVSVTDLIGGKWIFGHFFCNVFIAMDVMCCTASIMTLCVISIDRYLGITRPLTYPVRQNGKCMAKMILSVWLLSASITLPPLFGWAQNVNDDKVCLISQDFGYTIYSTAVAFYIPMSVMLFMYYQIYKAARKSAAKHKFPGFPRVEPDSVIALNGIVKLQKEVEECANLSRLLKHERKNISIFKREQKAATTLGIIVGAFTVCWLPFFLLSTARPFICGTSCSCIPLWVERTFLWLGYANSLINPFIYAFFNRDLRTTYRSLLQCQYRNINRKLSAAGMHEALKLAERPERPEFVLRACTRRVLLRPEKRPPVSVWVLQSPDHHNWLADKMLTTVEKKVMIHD
UniProt P35372, whole entry: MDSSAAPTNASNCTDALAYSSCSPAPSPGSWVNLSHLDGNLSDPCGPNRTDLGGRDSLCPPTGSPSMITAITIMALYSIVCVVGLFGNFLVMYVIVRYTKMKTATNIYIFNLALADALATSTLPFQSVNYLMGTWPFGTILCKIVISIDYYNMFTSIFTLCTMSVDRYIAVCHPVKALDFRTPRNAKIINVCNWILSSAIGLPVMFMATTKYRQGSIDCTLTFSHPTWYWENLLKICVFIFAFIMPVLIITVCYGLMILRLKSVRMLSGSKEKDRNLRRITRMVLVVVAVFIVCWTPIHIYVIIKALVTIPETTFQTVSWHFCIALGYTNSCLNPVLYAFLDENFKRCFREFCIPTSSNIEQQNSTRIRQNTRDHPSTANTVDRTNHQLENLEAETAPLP
UniProt P30536, whole entry: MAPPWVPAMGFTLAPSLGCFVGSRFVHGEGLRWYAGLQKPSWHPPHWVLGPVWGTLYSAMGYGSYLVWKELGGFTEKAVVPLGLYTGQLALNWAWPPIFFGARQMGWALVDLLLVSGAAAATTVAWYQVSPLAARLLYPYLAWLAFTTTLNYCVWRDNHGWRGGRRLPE
UniProt P22002, whole entry: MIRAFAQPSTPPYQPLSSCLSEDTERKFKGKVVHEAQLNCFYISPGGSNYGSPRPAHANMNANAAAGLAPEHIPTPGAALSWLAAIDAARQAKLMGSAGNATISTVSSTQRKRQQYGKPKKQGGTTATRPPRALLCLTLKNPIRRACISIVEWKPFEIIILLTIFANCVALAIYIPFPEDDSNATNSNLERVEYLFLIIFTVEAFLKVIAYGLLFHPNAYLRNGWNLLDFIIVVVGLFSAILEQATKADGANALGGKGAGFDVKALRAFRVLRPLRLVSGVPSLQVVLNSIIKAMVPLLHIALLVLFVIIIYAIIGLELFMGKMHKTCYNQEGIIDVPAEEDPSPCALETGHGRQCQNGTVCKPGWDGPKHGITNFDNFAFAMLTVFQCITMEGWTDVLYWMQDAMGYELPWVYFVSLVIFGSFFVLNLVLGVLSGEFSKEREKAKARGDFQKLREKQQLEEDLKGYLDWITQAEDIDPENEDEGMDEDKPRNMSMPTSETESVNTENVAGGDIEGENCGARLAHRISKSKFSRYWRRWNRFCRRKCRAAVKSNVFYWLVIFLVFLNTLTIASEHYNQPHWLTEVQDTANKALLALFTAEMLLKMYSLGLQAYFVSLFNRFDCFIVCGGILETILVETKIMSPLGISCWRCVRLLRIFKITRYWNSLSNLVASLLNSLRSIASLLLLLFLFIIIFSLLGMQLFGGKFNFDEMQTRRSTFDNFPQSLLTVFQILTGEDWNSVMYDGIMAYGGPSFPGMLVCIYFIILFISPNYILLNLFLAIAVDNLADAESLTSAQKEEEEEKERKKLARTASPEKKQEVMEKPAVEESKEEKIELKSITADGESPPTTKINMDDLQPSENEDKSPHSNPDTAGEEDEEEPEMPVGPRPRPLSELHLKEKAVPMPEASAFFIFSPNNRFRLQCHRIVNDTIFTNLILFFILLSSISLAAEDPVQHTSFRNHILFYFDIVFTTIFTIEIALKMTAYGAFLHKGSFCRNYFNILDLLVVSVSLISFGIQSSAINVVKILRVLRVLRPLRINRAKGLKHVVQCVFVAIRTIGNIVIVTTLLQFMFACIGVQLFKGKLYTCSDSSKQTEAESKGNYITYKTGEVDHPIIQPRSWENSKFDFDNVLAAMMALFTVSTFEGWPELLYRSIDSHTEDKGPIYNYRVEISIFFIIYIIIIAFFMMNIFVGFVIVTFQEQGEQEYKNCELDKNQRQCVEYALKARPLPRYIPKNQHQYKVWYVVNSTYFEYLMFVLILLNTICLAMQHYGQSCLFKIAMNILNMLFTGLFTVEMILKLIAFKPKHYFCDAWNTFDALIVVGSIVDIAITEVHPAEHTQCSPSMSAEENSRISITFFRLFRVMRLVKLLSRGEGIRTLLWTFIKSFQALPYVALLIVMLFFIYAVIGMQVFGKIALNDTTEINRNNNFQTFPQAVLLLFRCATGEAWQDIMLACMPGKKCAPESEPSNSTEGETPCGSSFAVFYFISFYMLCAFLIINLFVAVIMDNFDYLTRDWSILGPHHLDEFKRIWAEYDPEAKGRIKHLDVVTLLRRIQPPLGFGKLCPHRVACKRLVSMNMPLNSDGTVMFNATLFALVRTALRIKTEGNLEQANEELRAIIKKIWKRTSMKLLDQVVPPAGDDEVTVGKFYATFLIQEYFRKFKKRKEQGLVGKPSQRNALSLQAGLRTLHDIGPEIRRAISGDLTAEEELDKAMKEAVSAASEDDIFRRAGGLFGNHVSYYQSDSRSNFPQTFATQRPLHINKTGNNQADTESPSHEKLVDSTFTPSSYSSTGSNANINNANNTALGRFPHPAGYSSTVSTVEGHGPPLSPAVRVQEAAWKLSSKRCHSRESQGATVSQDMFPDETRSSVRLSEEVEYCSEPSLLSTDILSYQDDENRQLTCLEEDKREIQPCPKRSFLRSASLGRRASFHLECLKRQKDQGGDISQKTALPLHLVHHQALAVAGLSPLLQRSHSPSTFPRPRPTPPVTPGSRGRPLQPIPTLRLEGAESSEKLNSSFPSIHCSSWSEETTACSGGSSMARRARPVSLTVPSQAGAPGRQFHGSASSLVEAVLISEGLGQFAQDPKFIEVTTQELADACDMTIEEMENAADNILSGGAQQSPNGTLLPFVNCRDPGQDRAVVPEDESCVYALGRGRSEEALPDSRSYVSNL
UniProt P25021, whole entry: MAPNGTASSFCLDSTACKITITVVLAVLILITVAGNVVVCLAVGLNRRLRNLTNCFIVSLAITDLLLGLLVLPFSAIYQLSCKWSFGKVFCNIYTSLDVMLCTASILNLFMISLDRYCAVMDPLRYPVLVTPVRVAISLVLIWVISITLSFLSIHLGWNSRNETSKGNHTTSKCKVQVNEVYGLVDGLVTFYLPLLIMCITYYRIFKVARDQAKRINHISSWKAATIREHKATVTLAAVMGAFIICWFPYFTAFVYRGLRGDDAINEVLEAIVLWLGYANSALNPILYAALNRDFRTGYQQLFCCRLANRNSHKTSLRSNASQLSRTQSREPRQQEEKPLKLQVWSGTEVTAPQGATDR
UniProt P25101, 21-427 limits assumed: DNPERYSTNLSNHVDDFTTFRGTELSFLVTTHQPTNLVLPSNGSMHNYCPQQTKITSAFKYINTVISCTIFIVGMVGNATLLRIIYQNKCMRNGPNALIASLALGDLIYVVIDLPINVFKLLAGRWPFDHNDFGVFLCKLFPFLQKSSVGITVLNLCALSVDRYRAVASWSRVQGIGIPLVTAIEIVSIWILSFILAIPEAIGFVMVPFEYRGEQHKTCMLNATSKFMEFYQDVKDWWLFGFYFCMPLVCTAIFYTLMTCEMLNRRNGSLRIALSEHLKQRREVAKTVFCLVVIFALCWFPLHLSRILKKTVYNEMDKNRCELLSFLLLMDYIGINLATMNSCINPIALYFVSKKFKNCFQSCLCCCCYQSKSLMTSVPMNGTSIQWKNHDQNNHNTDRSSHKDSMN
UniProt P07510, 23-517 limits assumed: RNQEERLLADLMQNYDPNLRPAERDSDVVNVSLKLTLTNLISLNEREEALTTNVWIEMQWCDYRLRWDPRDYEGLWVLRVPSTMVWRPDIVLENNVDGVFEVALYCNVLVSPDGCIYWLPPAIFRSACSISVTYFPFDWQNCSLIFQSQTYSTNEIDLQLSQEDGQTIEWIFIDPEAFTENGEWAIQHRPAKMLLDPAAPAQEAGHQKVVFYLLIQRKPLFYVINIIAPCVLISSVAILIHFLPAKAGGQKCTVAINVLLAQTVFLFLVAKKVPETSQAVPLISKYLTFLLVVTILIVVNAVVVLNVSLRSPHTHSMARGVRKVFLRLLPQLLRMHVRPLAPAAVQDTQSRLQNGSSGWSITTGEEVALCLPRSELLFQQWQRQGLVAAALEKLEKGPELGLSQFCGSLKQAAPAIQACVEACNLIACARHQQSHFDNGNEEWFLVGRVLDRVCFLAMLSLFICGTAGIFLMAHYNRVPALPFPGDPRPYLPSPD
UniProt Q99720, whole entry: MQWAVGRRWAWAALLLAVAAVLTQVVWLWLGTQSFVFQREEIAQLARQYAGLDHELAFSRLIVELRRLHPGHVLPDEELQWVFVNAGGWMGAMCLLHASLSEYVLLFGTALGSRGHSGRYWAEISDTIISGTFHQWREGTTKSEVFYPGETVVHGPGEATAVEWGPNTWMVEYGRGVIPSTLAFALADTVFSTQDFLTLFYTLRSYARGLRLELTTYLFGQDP
UniProt P37231, whole entry: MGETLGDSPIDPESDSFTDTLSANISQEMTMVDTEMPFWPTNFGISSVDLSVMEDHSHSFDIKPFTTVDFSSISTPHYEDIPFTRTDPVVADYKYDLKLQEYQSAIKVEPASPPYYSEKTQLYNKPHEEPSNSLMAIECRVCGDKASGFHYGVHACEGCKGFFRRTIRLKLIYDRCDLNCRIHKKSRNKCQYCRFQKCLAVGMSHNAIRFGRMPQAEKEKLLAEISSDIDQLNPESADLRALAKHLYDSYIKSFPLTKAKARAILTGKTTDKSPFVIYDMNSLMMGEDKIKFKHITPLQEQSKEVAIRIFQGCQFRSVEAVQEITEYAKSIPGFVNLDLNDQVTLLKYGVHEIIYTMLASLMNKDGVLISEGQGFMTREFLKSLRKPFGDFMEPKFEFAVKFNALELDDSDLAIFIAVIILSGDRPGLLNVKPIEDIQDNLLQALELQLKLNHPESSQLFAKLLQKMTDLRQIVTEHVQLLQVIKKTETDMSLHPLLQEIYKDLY
UniProt P35367, whole entry: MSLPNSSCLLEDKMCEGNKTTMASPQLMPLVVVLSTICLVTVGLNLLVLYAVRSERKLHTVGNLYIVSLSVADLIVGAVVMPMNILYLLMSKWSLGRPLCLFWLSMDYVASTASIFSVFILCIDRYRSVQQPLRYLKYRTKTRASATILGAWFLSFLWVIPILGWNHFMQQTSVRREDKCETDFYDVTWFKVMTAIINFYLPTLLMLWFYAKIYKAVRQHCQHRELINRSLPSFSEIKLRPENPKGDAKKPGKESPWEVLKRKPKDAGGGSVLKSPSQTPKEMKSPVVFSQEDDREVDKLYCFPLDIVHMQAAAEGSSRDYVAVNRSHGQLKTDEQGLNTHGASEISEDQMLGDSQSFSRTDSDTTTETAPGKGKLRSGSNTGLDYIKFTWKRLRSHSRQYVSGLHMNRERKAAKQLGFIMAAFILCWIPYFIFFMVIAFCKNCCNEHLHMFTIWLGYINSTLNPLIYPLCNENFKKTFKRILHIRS

`Cc1nc(C(F)(F)F)c2c(C(N)=O)c(N)n(-c3c(C)ccc(O)c3C)c2n1` (single isomer, unassigned) was tested, and the IC50 (CYP2D6) was greater than 30 µM, the “Pharmacological mode of action” value (M2 muscarinic receptor) was “Inactive” and the Ki (M2 muscarinic receptor; read-out: Binding Ki) was greater than 100 µM. For the same molecule, the “Pharmacological mode of action” value (CB1 cannabinoid receptor) was “Inactive”, the Ki (CB1 cannabinoid receptor; read-out: Binding Ki) was greater than 100 µM and the “Pharmacological mode of action” value (AT1 angiotensin receptor) was “Inactive”. For the same molecule, the Ki (AT1 angiotensin receptor; read-out: Binding Ki) was greater than 100 µM, the “Pharmacological mode of action” value (GABAAα1β2γ2 receptor) was “Inactive” and the Ki (GABAAα1β2γ2 receptor; read-out: Binding Ki) was greater than 100 µM. The “Pharmacological mode of action” value (NK1 neurokinin receptor) was “Inactive”, the Ki (NK1 neurokinin receptor; read-out: Binding Ki) was greater than 100 µM and the “Pharmacological mode of action” value (Ghrelin receptor) was “Inactive”. For the same molecule, the Ki (Ghrelin receptor; read-out: Binding Ki) was greater than 100 µM, the “Pharmacological mode of action” value (A2A adenosine receptor) was “Inactive” and the Ki (A2A adenosine receptor; read-out: Binding Ki) was greater than 100 µM. The “Pharmacological mode of action” value (5-HT7 receptor) was “Inactive”, the Ki (5-HT7 receptor; read-out: Binding Ki) was greater than 100 µM and the “Pharmacological mode of action” value (5-HT2C receptor) was “Inactive”. The Ki (5-HT2C receptor; read-out: Binding Ki) was greater than 100 µM, the “Pharmacological mode of action” value (μ opioid receptor) was “Inactive” and the Ki (μ opioid receptor; read-out: Binding Ki) was greater than 100 µM. The “Pharmacological mode of action” value [1] was “Inactive”, the Ki ([1]; read-out: Binding Ki) was greater than 100 µM and the “Pharmacological mode of action” value [2] was “Inactive”. For the same molecule, the Ki ([2]; read-out: Binding Ki) was greater than 100 µM, the “Pharmacological mode of action” value (M5 muscarinic receptor) was “Inactive” and the Ki (M5 muscarinic receptor; read-out: Binding Ki) was greater than 100 µM. For the same molecule, the “Pharmacological mode of action” value (κ opioid receptor) was “Inactive”, the Ki (κ opioid receptor; read-out: Binding Ki) was greater than 100 µM and the “Pharmacological mode of action” value (5-HT1A receptor) was “Inactive”. The Ki (5-HT1A receptor; read-out: Binding Ki) was greater than 100 µM, the “Pharmacological mode of action” value (H2 histamine receptor) was “Inactive” and the Ki (H2 histamine receptor; read-out: Binding Ki) was greater than 100 µM. For the same molecule, the “Pharmacological mode of action” value (ETA endothelin receptor) was “Inactive”, the Ki (ETA endothelin receptor; read-out: Binding Ki) was greater than 100 µM and the “Pharmacological mode of action” value (GABAA receptor, BNZ site) was “Inactive”. The Ki (GABAA receptor, BNZ site; read-out: Binding Ki) was greater than 100 µM, the “Pharmacological mode of action” value (δ opioid Receptor) was “Inactive” and the Ki (δ opioid Receptor; read-out: Binding Ki) was greater than 100 µM. For the same molecule, the “Pharmacological mode of action” value [3] was “Inactive”, the Ki ([3]; read-out: Binding Ki) was greater than 100 µM and the “Pharmacological mode of action” value [4] was “Inactive”. The Ki ([4]; read-out: Binding Ki) was greater than 100 µM, the “Pharmacological mode of action” value [5] was “Inactive” and the Ki ([5]; read-out: Binding Ki) was greater than 100 µM. For the same molecule, the “Pharmacological mode of action” value (α1 nicotinic receptor) was “Inactive”, the Ki (α1 nicotinic receptor; read-out: Binding Ki) was greater than 100 µM and the “Pharmacological mode of action” value [6] was “Inactive”. The Ki ([6]; read-out: Binding Ki) was greater than 100 µM, the “Pharmacological mode of action” value [7] was “Inactive” and the Ki ([7]; read-out: Binding Ki) was greater than 100 µM. For the same molecule, the “Pharmacological mode of action” value (B2 bradykinin receptor) was “Inactive”, the Ki (B2 bradykinin receptor; read-out: Binding Ki) was greater than 100 µM and the “Pharmacological mode of action” value (Sigma σ1 Receptor) was “Inactive”. For the same molecule, the Ki (Sigma σ1 Receptor; read-out: Binding Ki) was greater than 100 µM, the “Pharmacological mode of action” value (MT2 melatonin receptor) was “Inactive” and the Ki (MT2 melatonin receptor; read-out: Binding Ki) was greater than 100 µM. The “Pharmacological mode of action” value [8] was “Inactive”, the Ki ([8]; read-out: Binding Ki) was greater than 100 µM and the “Pharmacological mode of action” value (Adenosine Transporter) was “Inactive”. For the same molecule, the Ki (Adenosine Transporter; read-out: Binding Ki) was greater than 100 µM, the “Pharmacological mode of action” value (H1 histamine receptor) was “Inactive” and the Ki (H1 histamine receptor; read-out: Binding Ki) was greater than 100 µM.
